{"source": "patent US20060110594A1", "about": "“Polymer-coated substrates for binding biomolecules and methods of making and using thereof” (priority 2004, published 2006)", "origin": "cited, not measured here", "settings": "isoelectric point, listed property; cited from earlier work", "data": [{"substance": "HSA: human serum albumin, a protein involved in the transport of drugs in the blood", "values": [{"measurement": "pI", "result": 5.5}]}]}
